pIC50, pKi: −log10 of the molar value.
Biological target: CB1 receptor (Mus musculus, UniProt P47746)
Assay: biochemical

Chains of the proteins cited; added tags and fusions are not shown.
UniProt P47746, whole entry: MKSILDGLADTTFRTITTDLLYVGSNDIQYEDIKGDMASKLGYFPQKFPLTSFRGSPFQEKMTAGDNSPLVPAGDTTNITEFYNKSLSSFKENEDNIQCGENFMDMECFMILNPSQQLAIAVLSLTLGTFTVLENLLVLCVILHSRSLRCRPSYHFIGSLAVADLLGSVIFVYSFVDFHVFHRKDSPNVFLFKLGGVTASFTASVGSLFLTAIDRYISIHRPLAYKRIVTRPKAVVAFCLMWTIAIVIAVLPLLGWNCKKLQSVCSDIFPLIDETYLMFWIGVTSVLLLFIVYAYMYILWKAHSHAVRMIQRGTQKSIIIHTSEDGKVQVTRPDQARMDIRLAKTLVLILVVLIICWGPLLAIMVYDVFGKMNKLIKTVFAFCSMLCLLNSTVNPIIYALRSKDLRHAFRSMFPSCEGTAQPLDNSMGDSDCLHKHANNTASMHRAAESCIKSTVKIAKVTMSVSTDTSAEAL

Work on `CCCCCc1cc(O)c2c(c1)OC(C)(C)[C@@H]1CCC(C)=CC21` (some centres unmarked) [∆^9-THC, ∆^9-tetrahydrocannabinol] yielded a pIC50 of 7.99 and a pKi of 8.18.

— publication PMC6314990, “∆^9-Tetrahydrocannabinol, a major marijuana component, enhances the anesthetic effect of pentobarbital through the CB1 receptor” (Forensic Toxicology, 2018)
